Laboratory results from BindingDB's records for PubMed 3010074 (Warner-Lambert/Parke-Davis Pharmaceutical Research, 1986).

Protein sequences, listed by entry. Tags and fused reporters are not part of them.
UniProt P25099, whole entry: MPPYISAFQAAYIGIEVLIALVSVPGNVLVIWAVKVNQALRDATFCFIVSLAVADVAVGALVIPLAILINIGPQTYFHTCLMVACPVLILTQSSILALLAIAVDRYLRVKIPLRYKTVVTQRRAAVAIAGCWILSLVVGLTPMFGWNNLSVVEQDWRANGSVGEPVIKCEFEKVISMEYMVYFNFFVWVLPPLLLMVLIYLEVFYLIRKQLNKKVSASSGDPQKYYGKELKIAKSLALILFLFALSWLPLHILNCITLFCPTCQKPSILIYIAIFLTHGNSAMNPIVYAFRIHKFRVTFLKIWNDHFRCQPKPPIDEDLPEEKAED

Biological target: Adenosine receptor A1 (Rattus norvegicus, UniProt P25099)

In the case of `OC[C@H]1O[C@@H](n2cnc3c(NCc4ccccc4)ncnc32)[C@H](O)[C@@H]1O` [N6-benzylado], the Ki is reported as 120 nM.
